The chains behind the UniProt entries cited, without tags or fusion partners. Residues count along the entry.
UniProt O43683, 704-1085: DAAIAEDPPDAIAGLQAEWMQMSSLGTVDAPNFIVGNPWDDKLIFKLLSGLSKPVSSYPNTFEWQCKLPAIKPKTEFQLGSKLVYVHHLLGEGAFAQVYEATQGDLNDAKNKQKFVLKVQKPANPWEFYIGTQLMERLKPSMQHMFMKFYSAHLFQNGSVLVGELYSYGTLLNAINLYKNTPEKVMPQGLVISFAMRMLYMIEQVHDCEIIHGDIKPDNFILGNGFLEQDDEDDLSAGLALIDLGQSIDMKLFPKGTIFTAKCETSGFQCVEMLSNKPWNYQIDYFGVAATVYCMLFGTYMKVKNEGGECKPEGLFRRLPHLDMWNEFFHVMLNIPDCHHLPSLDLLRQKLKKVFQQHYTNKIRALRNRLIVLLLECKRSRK

This assay has as its target human Bub1 (Homo sapiens (Human), UniProt O43683). The experiment in a line: Bub1 high ATP kinase assay (TR-FRET). It counts as biochemical. Conditions: read-out: Bub1 high ATP (2 mM) IC50; 2 mM ATP. The source says: Bub1-inhibitory activity of compounds of the present invention at a high ATP concentration was quantified employing the Bub1 TR-FRET high ATP kinase assay as described in the following paragraphs.
N-terminally His6-tagged recombinant catalytic domain of human Bub1 (amino acids 704-1085), expressed in insect cells (Hi5) and purified by Ni-NTA affinity chromatography and subsequent size exclusion chromatography, was used as enzyme.
Usually IC50 stands for the midpoint of a concentration-inhibition curve. On to `COc1c(Cl)cccc1Nc1c(-c2ccncc2OC[C@@H]2CCN2C)[nH]c2c1C(=O)NCC2` [Example 27, 3-(3-chloro-2-methoxyanilino)-2-(3-{[(2S)-1-methylazetidin-2-yl]methoxy}pyridin-4-yl)-1,5,6,7-tetrahydro-4H-pyrrolo[3,2-c]pyridin-4-one], for which the half-maximal inhibitory concentration (IC50) came out at 12.3 µM. In the case of `CCN1CC[C@H]1COc1cnccc1-c1[nH]c2c(c1Nc1cccc(Cl)c1OC)C(=O)NCC2` [Example 28, 3-(3-chloro-2-methoxyanilino)-2-(3-{[(2S)-1-ethylazetidin-2-yl]methoxy}pyridin-4-yl)-1,5,6,7-tetrahydro-4H-pyrrolo[3,2-c]pyridin-4-one], the IC50 was more than 20 µM. To `COc1c(Cl)cccc1Nc1c(-c2ccncc2OC[C@@H]2CCN2CC(F)(F)F)[nH]c2c1C(=O)NCC2` [Example 29, 3-(3-chloro-2-methoxyanilino)-2-(3-{[(2S)-1-(2,2,2-trifluoroethyl)azetidin-2-yl]methoxy}pyridin-4-yl)-1,5,6,7-tetrahydro-4H-pyrrolo[3,2-c]pyridin-4-one] belongs more than 20 µM; to `COc1c(Cl)cccc1Nc1c(-c2ccncc2OC[C@H]2CCN2CC(F)(F)F)[nH]c2c1C(=O)NCC2` [Example 30, 3-(3-chloro-2-methoxyanilino)-2-(3-{[(2R)-1-(2,2,2-trifluoroethyl)azetidin-2-yl]methoxy}pyridin-4-yl)-1,5,6,7-tetrahydro-4H-pyrrolo[3,2-c]pyridin-4-one], more than 20 µM.

As for `COc1c(F)cccc1Nc1c(-c2ccncc2OC[C@H]2CCN2C)[nH]c2c1C(=O)NCC2` [Example 79, 3-(3-fluoro-2-methoxyanilino)-2-(3-{[(2R)-1-methylazetidin-2-yl]methoxy}pyridin-4-yl)-1,5,6,7-tetrahydro-4H-pyrrolo[3,2-c]pyridin-4-one], the IC50 was more than 20 µM.

For the origin of these results see patent US20240307362A1 (priority 2019, published 2024).
